We go through 6 molecules from patent US20240376226A1, “COMPOSITIONS AND METHODS RELATING TO TUMOR ACTIVATED T CELL ENGAGERS” (Janux Therapeutics, Inc., priority 2019, published 2024).

Protein sequences, listed by entry. Tags and fused reporters are not part of them. Residues count along the entry.
UniProt P02701, 25-152: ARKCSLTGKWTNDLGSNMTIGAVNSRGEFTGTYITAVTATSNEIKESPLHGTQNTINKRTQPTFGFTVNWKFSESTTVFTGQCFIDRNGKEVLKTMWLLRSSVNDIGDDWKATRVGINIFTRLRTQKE

Test [1] concerns Trastuzumab (Ab-6, Ab-7). Description: Phagemid hit identification ELISA on captured Trastuzumab. It counts as binding. The note with it: clonal phage on neutravidin captured biotinylated Ab-6, Ab-7.
For test [2], the system named is Trastuzumab (Ab-6, Ab-7). As to the kind of experiment: Phagemid competition ELISA, Trastuzumab pre-incubated with soluble HER2. It counts as binding. Particulars: for Phage ELISA 6 nM Her2 % inhib: pre-incubation with 6 nM soluble HER2; for Phage ELISA 20 nM Her2 % inhib: pre-incubation with 20 nM soluble HER2.
For a further test, the target named is neutravidin (Gallus gallus, UniProt P02701). Description: Phage ELISA, phage binding to neutravidin alone (NAv bkgd).
Test [3] has as its system Trastuzumab (Ab-6, Ab-7). As to the kind of experiment: BLI kinetic binding of antibody to peptides (Octet). Particulars: Target Trastuzumab; biotinylated synthetic peptide on sensor.
Test [4] has as its target Trastuzumab (Ab-6, Ab-7). As to the kind of experiment: ELISA equilibrium binding of antibody to peptides. Particulars: Target Trastuzumab; antibody titrated on captured peptide.
In test [5] the test system is SP34 (Ab-9, Ab-10). Description: Phagemid competition ELISA, SP34 pre-incubated with CD3. It is filed as binding. Particulars: for Phage ELISA 20 nM CD3 % inhib: 20 nM CD3 pre-incubation; for Phage ELISA 200 nM CD3 % inhib: 200 nM CD3 pre-incubation.
In test [6] the test system is SP34 (Ab-9, Ab-10). Description: BLI kinetic binding of antibody to peptides (Octet). The note with it: Target SP34; biotinylated synthetic peptide on sensor.
The test system of test [7] is SP34 (Ab-9, Ab-10) binding to CD3. Description: BLI inhibition of kinetic binding of antibody to cognate antigen by peptides. Particulars: Target SP34, 100 uM peptide.
Test [8] concerns the target SP34 (Ab-9, Ab-10). Description: ELISA equilibrium binding of antibody to peptides. The note with it: Target SP34; antibody titrated on captured peptide.
For test [9], the target named is SP34 (Ab-9, Ab-10) binding to CD3. Description: ELISA inhibition of equilibrium binding of antibody to cognate antigen by peptides. Particulars: Target SP34; peptide inhibition of antibody binding to CD3.
Test [10] deals with SP34 (Ab-9, Ab-10). As to the kind of experiment: Phagemid hit identification ELISA on captured SP34. The note with it: clonal phage, ELISA signal on captured SP34 (Ab-9, Ab-10). It is filed as binding.
Setting [11] is: clonal phage, ELISA signal on neutravidin alone.

Turning to `CC[C@H](C)[C@H](NC(=O)CNC(=O)CN)C(=O)N[C@@H](CC(=O)O)C(=O)N[C@H]1CSSC[C@@H](C(=O)N[C@@H](Cc2ccc(O)cc2)C(=O)NCC(=O)NCC(=O)NCC(=O)NCC(=O)N[C@@H](CO)C(=O)NCCOCCOCCOCCOCCC(=O)N[C@@H](CCCCNC(=O)CCCC[C@@H]2SC[C@@H]3NC(=O)N[C@@H]32)C(N)=O)NC(=O)[C@H](CO)NC(=O)[C@H](CCC(=O)O)NC(=O)[C@H]([C@@H](C)O)NC(=O)[C@H](Cc2ccc(O)cc2)NC(=O)[C@H](Cc2c[nH]cn2)NC(=O)[C@H](CC(=O)O)NC(=O)[C@H](CC(C)C)NC(=O)[C@H](CO)NC(=O)[C@H](C)NC1=O` [Peptide-9], the “Phage ELISA Ab-6, Ab-7 signal” value in the test on Trastuzumab (Ab-6, Ab-7) [1] was determined as 2.004. Besides, in the test with Trastuzumab (Ab-6, Ab-7) [2], the “Phage ELISA 6 nM Her2 % inhib” value is given as 90% and the “Phage ELISA 20 nM Her2 % inhib” value stood at 96%.
With `CC[C@H](C)[C@H](NC(=O)[C@H](CC(N)=O)NC(=O)CNC(=O)CN)C(=O)N[C@H]1CSSC[C@@H](C(=O)N[C@@H](C)C(=O)N[C@H](C(=O)NCC(=O)NCC(=O)NCC(=O)NCC(=O)N[C@@H](CO)C(=O)NCCOCCOCCOCCOCCC(=O)N[C@@H](CCCCNC(=O)CCCC[C@@H]2SC[C@@H]3NC(=O)N[C@@H]32)C(N)=O)C(C)C)NC(=O)CNC(=O)[C@H](CO)NC(=O)[C@H](CCCNC(=N)N)NC(=O)[C@H](Cc2c[nH]c3ccccc23)NC(=O)[C@H](CO)NC(=O)[C@H](Cc2ccc(O)cc2)NC(=O)[C@H](CC(=O)O)NC(=O)[C@H](CCSC)NC1=O` [Peptide-15], at neutravidin (clonal phage panned against Ab-6, Ab-7, signal on neutravidin alone), the “Phage ELISA NAv bkgd” value was found to be 0.084. Moreover, in the test with Trastuzumab (Ab-6, Ab-7) [2], the “Phage ELISA 6 nM Her2 % inhib” value came out at 95% and the “Phage ELISA 20 nM Her2 % inhib” value turned out to be 98%. In the test with Trastuzumab (Ab-6, Ab-7) [3], the “Octet BLI Binds” value was “YES”. Further, the midpoint of the response at Trastuzumab (Ab-6, Ab-7) [4], the EC50, lay at 0.05 nM.
In the case of `CC[C@H](C)[C@H](NC(=O)[C@@H]1CSSC[C@H](NC(=O)[C@H](CCC(=O)O)NC(=O)[C@H](CC(C)C)NC(=O)CNC(=O)CN)C(=O)N[C@@H](Cc2ccccc2)C(=O)N[C@@H](CC(=O)O)C(=O)N2CCC[C@H]2C(=O)N[C@@H](CCC(=O)O)C(=O)N[C@@H]([C@@H](C)CC)C(=O)N2CCC[C@H]2C(=O)N[C@@H](CCC(=O)O)C(=O)N[C@@H](C)C(=O)N[C@@H](Cc2ccccc2)C(=O)N1)C(=O)NCC(=O)NCC(=O)NCC(=O)NCC(=O)N[C@@H](CO)C(=O)NCCOCCOCCOCCOCCC(=O)N[C@@H](CCCCNC(=O)CCCC[C@@H]1SC[C@@H]2NC(=O)N[C@@H]21)C(N)=O` [Peptide-24], on neutravidin (setting [11]), the “Phage ELISA NAv bkgd” value came out at 0.053. Besides, in the test with SP34 (Ab-9, Ab-10) [5], the “Phage ELISA 20 nM CD3 % inhib” value was found to be 90% and the “Phage ELISA 200 nM CD3 % inhib” value is on record as 90%. In the test on SP34 (Ab-9, Ab-10) [6], the “Octet BLI Binds” value is on record as “YES”. Also, in [7], the “Octet BLI Competes at 100 uM” value is recorded as “YES”. The same molecule returned an EC50 on SP34 (Ab-9, Ab-10) [8] of 2.66 nM. For the same molecule, the IC50 in test [9] amounted to 2220 nM.
Turning to `CC[C@H](C)[C@@H]1NC(=O)[C@H]([C@@H](C)O)NC(=O)CNC(=O)[C@@H](NC(=O)CNC(=O)[C@H](CCC(N)=O)NC(=O)CNC(=O)CN)CSSC[C@@H](C(=O)N[C@@H](Cc2c[nH]c3ccccc23)C(=O)NCC(=O)NCC(=O)NCC(=O)NCC(=O)N[C@@H](CO)C(=O)NCCOCCOCCOCCOCCC(=O)N[C@@H](CCCCNC(=O)CCCC[C@@H]2SC[C@@H]3NC(=O)N[C@@H]32)C(N)=O)NC(=O)[C@H](Cc2c[nH]cn2)NC(=O)[C@@H]2CCCN2C(=O)[C@H](CCC(=O)O)NC(=O)[C@@H]2CCCN2C(=O)[C@H](CC(=O)O)NC(=O)[C@H](C)NC1=O` [Peptide-25], the “Phage ELISA NAv bkgd” value on neutravidin (setting [11]) is reported as 0.061. For the same molecule, in the test on SP34 (Ab-9, Ab-10) [5], the “Phage ELISA 20 nM CD3 % inhib” value is 84% and the “Phage ELISA 200 nM CD3 % inhib” value was 84%. For the same molecule, the “Octet BLI Binds” value in the test with SP34 (Ab-9, Ab-10) [6] is listed as “YES”. Also, in test [7], the “Octet BLI Competes at 100 uM” value is reported as “YES”. On SP34 (Ab-9, Ab-10) [8], this molecule came in with an EC50 of 1.95 nM. Further, the IC50 in [9] stood at 2490 nM.
As for `CC[C@H](C)[C@@H]1NC(=O)[C@H](CC(=O)O)NC(=O)[C@@H]2CCCN2C(=O)[C@H](CC(=O)O)NC(=O)[C@H](Cc2c[nH]cn2)NC(=O)[C@@H](NC(=O)[C@H](CC(N)=O)NC(=O)CNC(=O)CN)CSSC[C@@H](C(=O)N[C@@H](CO)C(=O)NCC(=O)NCC(=O)NCC(=O)NCC(=O)N[C@@H](CO)C(=O)NCCOCCOCCOCCOCCC(=O)N[C@@H](CCCCNC(=O)CCCC[C@@H]2SC[C@@H]3NC(=O)N[C@@H]32)C(N)=O)NC(=O)[C@H](CC(C)C)NC(=O)[C@H](C(C)C)NC(=O)[C@H](Cc2ccc(O)cc2)NC(=O)[C@H](C)NC(=O)[C@@H]2CCCN2C1=O` [Peptide-26], the “Phage ELISA NAv bkgd” value at neutravidin (setting [11]) worked out at 0.084. In the test on SP34 (Ab-9, Ab-10) [10], the “Phage ELISA Ab-9, Ab-10 signal” value was 0.540. Also, in the test with SP34 (Ab-9, Ab-10) [5], the “Phage ELISA 20 nM CD3 % inhib” value stood at 81% and the “Phage ELISA 200 nM CD3 % inhib” value came to 85%. Besides, in the test on SP34 (Ab-9, Ab-10) [6], the “Octet BLI Binds” value is recorded as “YES”. In test [7], the “Octet BLI Competes at 100 uM” value is “YES”. Also, at SP34 (Ab-9, Ab-10) [8], it took 8.69 nM to reach a half-maximal effect (EC50).
Take `CC[C@H](C)[C@@H]1NC(=O)[C@H](CCSC)NC(=O)[C@@H](NC(=O)[C@H](CC(C)C)NC(=O)CNC(=O)CN)CSSC[C@@H](C(=O)N[C@@H](CC(C)C)C(=O)NCC(=O)NCC(=O)NCC(=O)NCC(=O)N[C@@H](CO)C(=O)NCCOCCOCCOCCOCCC(=O)N[C@@H](CCCCNC(=O)CCCC[C@@H]2SC[C@@H]3NC(=O)N[C@@H]32)C(N)=O)NC(=O)[C@H](C(C)C)NC(=O)[C@H](CC(=O)O)NC(=O)CNC(=O)[C@@H]2CCCN2C(=O)[C@H](CC(C)C)NC(=O)[C@H](Cc2c[nH]c3ccccc23)NC(=O)[C@H](CC(=O)O)NC(=O)CNC1=O` [Peptide-28]: the “Phage ELISA NAv bkgd” value at neutravidin (setting [11]) was determined as 0.058. Further, in the test with SP34 (Ab-9, Ab-10) [5], the “Phage ELISA 20 nM CD3 % inhib” value is 93% and the “Phage ELISA 200 nM CD3 % inhib” value came to 94%. Moreover, the “Octet BLI Binds” value in the test with SP34 (Ab-9, Ab-10) [6] is on record as “YES”. Besides, the “Octet BLI Competes at 100 uM” value in [7] is “YES”. The molecule also yielded an EC50 on SP34 (Ab-9, Ab-10) [8] of 6.76 nM. In test [9], this molecule gave an IC50 of 96000 nM.
